Among the data in PubChem BioAssay AID602282 (Johns Hopkins Ion Channel Center, 2012) are inhibition values, retold here.

The entries are a selection whose mix differs from that of the whole data set. The source made the active and inactive calls.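 Rule for the calls: active = inhibition above 3 SD of the buffer control wells (cut at about 41% in these data); inactive = the rest.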

A word on the inhibition: it is the change of the read-out against control, counted positive when it falls.

The nature of the test: reduced carbachol calcium response, RGS4-induced M3R cells, confirmation, RGS4 activator project, cell-based, HEK293 M3R/RGS4 inducible, calcium flux, duplicate (AID 602282).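 Note: signal is the integrated peak-minus-minimum Fluo4 fluorescence over baseline ratio.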 As to conditions: carbachol calcium flux Fluo4, at 10 µM, stronger effect = higher value. For orientation: Calcium flux is commonly read through the fluorescence of an indicator in the cells.
For the molecule `CN1CCCCC1COC(=O)C1(O)c2ccccc2CCc2ccccc21` (centres undefined), the inhibition was active: 93%.

For `CCN(CC)CCCOC(=O)C(O)(c1ccccc1)c1ccccc1`, the inhibition was active: 93%.

Regarding `O=C(OCCCN1CCCC1)C(O)(c1ccccc1)C1CCCCC1` (centres undefined), the inhibition was active: 93%.

For the molecule `CN(C)CCOC(=O)C(O)(c1ccccc1)C1CCCCC1` (centres undefined), the inhibition was active: 93%.
